Consider three substances from US20120134993A1.

For assay [1], the target named is VEGF-A peptide 8. The assay can be described thus: peptide array (JPT RepliTope), scFv on 13-mer VEGF-A peptides.
In assay [2] the target is VEGF-A peptide 39. The assay is described as above.
For assay [3], the target named is VEGF-A peptide 23. The assay is described as above.
Assay [4] concerns the target VEGF-A peptide 9. Described as above.
The target in assay [5] is VEGF-A peptide 24. The description is as above.
In assay [6] the target is VEGF-A peptide 11. The description is as above.
Assay [7] deals with VEGF-A peptide 7. The description is as above.
In assay [8] the target is mouse VEGF-A164 (mouse) (UniProt Q00731). As to the kind of experiment: cell-based or functional assay.
The target of assay [9] is VEGF-A peptide 10. The assay can be described thus: peptide array (JPT RepliTope), scFv on 13-mer VEGF-A peptides.
Assay [10] has as its target VEGF-A peptide 37. The assay is described as above.
Assay [11] deals with VEGF-A peptide 60. Described as above.
The target of assay [12] is VEGF-A peptide 59. The description is as above.
The target of assay [13] is VEGF-A peptide 18. The assay is described as above.
For assay [14], the target named is VEGF-A peptide 75. Described as above.
Assay [15] concerns the target VEGF-A peptide 76. Described as above.
Assay [16] deals with VEGF-A peptide 19. The description is as above.
The target in assay [17] is VEGF-A peptide 77. The description is as above.
Assay [18] concerns the target VEGF-A peptide 78. The assay is described as above.
Assay [19] concerns the target VEGF-A peptide 20. The assay is described as above.
The target in assay [20] is human VEGF-A (human) (UniProt P15692). The assay can be described thus: cell-based or functional assay.
Assay [21] has the same target. The assay can be described thus: SPR (Biacore T100), antagonist captured via anti-His6/Myc, VEGF-A analyte, bivalent analyte model (ka1).
For assay [22] the target is unchanged. As to the kind of experiment: SPR (Biacore T100), antagonist captured via anti-His6/Myc, VEGF-A analyte, bivalent analyte model.
Assay [23] has the same target. As to the kind of experiment: SPR (Biacore T100), VEGF-A immobilized, 1:1 dissociation fit.
The target is the same in assay [24]. As to the kind of experiment: SPR (Biacore T100), antagonist captured via anti-His6/Myc, VEGF-A analyte, bivalent analyte model (kd1).
For assay [25] the target is unchanged. As to the kind of experiment: SPR (Biacore T100), antagonist captured via anti-His6/Myc, VEGF-A analyte, bivalent analyte model (KD1).

For c870 scFv, the percentage signal intensity of the peptide respect to overall signal intensities was 14% in assay [1]; 1% in [2]; 32% in [3]; 17% in assay [4]; 25% in assay [5]; 6% in [6]. For the same substance, the percentage signal intensity of the peptide respect to overall signal intensities in assay [7] stood at 4%. The substance also gave an IC50, mouse VEGF-A164-stimulated HUVEC proliferation (3H-thymidine) in [8] of 0.36 nM.

For the substance c1039 scFv, the percentage signal intensity of the peptide respect to overall signal intensities in [1] amounted to 6%; in [9] it was 5%; in [10], 4%; in assay [11], 5%; in assay [2], 3%; in assay [12] it was 13%. The percentage signal intensity of the peptide respect to overall signal intensities in assay [3] worked out at 9%; in [13], 3%; in assay [4], 7%; in [14], 7%; in assay [5], 7%; in assay [15], 4%. Moreover, the percentage signal intensity of the peptide respect to overall signal intensities in assay [6] was 7%; in assay [16], 5%; in assay [17], 4%; in assay [18] it was 4%; in [19], 3%; in [7], 3%. The IC50, VEGF-A165-induced luciferase reporter assay in 293/KDR/KZ136/c22 cells in assay [20] came out at 0.07 nM. In [20], the IC50, human VEGF-A165-stimulated HUVEC proliferation (3H-thymidine) amounted to 0.7 nM.

Substance “c1039 scFv (scFv; other documents disagree on this pair)” displayed an association rate constant (kon) in [21] of 300000 M⁻¹ s⁻¹. Also, in assay [22], the Ka came out at 2e+09 M⁻¹. The koff in assay [23] and in assay [24] was 0.0002 s⁻¹ each time. The Kd in [25] came out at 0.6 nM.
